Values quoted from earlier work, collected in PMC9334274, “A unique class of Zn^2+-binding serine-based PBPs underlies cephalosporin resistance and sporogenesis in Clostridioides difficile” (Nature Communications, 2022).

Tested on: Clostridioides difficile infection (CDI)
Conditions: cited from earlier work

In the case of `CCC[C@@H]1C[C@@H](C(=O)N[C@@H]([C@H]2O[C@H](SC)[C@H](O)[C@@H](O)[C@H]2O)[C@H](C)Cl)N(C)C1` [clindamycin], the “odds ratio for CDI” value is given as 2.86.
